For three compounds, IC50 results are on record in ChEMBL document CHEMBL1629532, “Design, synthesis, and structure-activity relationships of 3-ethynyl-1H-indazoles as inhibitors of the phosphatidylinositol 3-kinase signaling pathway” (J Med Chem, 2010).

SMILES strings stand for the structures.

In general, IC50 refers to the concentration that gives 50% inhibition.

The target in test [1] is T1, Serine/threonine-protein kinase mTOR (Homo sapiens, UniProt P42345). The experiment in a line: Inhibition of mTOR by LanthaScreen Eu kinase binding assay. The method, boiled down:
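Eu kinase binding TR-FRET displacement with FRAP1 (mTOR) at 5 nM, kinase tracer 20 nM and Eu-anti-GST antibody 2 nM, all final. Buffer 25 mM Tris-HCl, 5 mM MgCl2, 0.02% CHAPS.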
Background: TR-FRET usually uses a lanthanide donor and a delayed reading to cut background.

The target of test [2] is T1, Serine/threonine-protein kinase mTOR. The test can be described thus: Inhibition of mTORC1 expressed in HEK293 cells assessed as PRAS40 Ser183 phosphorylation level by LanthaScreen cellular assay. Format: cell-based. The method, boiled down: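 HEK293E cells stably expressing GFP-substrate fusions (AKT for pThr308; PRAS40 for pSer183), 20,000 per well, serum-starved overnight in low-glucose DMEM + 0.1% BSA. Lysed with 2 nM Tb-labeled phosphospecific antibody; TR-FRET read after 2 h at room temperature. IC50 by curve fitting.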

Test [3] concerns the target Phosphatidylinositol 4,5-bisphosphate 3-kinase catalytic subunit alpha isoform (Homo sapiens, UniProt P42336). The test can be described thus: Inhibition of PI3Kalpha by LanthaScreen Eu kinase binding assay. The gist of the method: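 Eu kinase binding TR-FRET assay (tracer displacement). PIK3CA/PIK3R1 at 5 nM with kinase tracer 20 nM and Eu-anti-His antibody 2 nM, all final. Buffer 25 mM Tris-HCl, 5 mM MgCl2, 0.02% CHAPS.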

Consider `Nc1cccc(C#Cc2n[nH]c3ccccc23)c1`, for which the IC50 in test [1] is above 100 µM.
Regarding `C(#Cc1n[nH]c2ncccc12)c1ccncc1`, the IC50 was above 10 µM in test [1] and 19.1 µM in test [2].
With `C(#Cc1n[nH]c2ccccc12)c1cccnc1`, in test [3], the IC50 was 1.85 µM.
